Reference: publication PMC5226997 (European Journal of Clinical Pharmacology, 2016)

Assay: Study A: plasma pharmacokinetics of single-dose selumetinib 25 mg alone or co-dosed with itraconazole or fluconazole
[1] = co-dosed with itraconazole vs selumetinib alone

Cn1cnc2c(F)c(Nc3ccc(Br)cc3Cl)c(C(=O)NOCCO)cc21 [Selumetinib]
effect on median t max (co-dosed with fluconazole vs selumetinib alone): did not impact | apparent systemic clearance (CL/F) decreased by [1]: approximately one third | effect on median t max [1]: did not influence
